Reference: patent US5200320A, “Method for identifying useful polypeptide vaccines” (National Jewish Center for Immunology and Respiratory …, priority 1987, dated 1993)

Molecular target: T1, IA^d (Mus musculus, UniProt P01921+P04228)
T1 sequence (P04228 24-256): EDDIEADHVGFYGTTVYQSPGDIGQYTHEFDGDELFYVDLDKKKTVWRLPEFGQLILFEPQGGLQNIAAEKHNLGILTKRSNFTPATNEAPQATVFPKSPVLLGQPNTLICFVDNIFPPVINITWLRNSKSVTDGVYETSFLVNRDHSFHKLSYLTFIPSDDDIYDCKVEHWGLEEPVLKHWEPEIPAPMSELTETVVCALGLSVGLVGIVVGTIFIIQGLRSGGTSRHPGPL
T1 sequence (P01921 28-265): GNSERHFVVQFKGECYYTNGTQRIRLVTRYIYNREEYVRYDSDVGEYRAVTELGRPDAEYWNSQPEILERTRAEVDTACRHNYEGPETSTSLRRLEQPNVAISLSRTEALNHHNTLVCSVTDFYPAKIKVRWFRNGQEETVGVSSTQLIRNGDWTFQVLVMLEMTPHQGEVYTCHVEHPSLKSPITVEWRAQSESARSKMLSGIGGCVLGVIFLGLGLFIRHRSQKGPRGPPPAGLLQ
Assay: Inhibition of binding of 125I-radiolabelled Ova 323-339 to purified IA^d (gel filtration competition assay)
Settings: Table 7, good binders; concentration of the indicated polypeptide
Text: The following examples will illustrate the method of the present invention. First, a critical binding segment of a first polypeptide that binds to a first type of MHC, was ascertained. […] This was accomplished by the method described in Sette, et al, Nature, Vol. […] No. 6129, pp. 395-399, Jul. 30, 1987, the entirety of which is incorporated herein by reference. […] For convenience, Table I of that paper illustrating the foregoing procedure, is attached as Table 2.
The effect which the substitutions indicated by an "X" in Table III, had on the binding strength of the critical binding segment listed at the top of attached Table 4, was quantitatively calculated, and a numerical designation assigned to the substituting amino acid based upon the degree of that effect. […] The quantitative evaluations of the binding strength were made using a competition assay as described in Sette, et al, supra, and the numerals assigned according to the decrease in the binding activity as follows: […]
In particular, as pointed out in Sette et al., supra, T-cell recognition is much less permissive than MHC recognition. […] Binding to a class II MHC type IA^d and IE^d (d strain of mouse) was evaluated using the same assay technique as used to evaluate the binding for the polypeptides in Tables 6 and 7 above.

Row | Structure (SMILES) | IC50 [µM]
1 | CC[C@H](C)[C@H](NC(=O)CNC(=O)[C@H](Cc1ccc(O)cc1)NC(=O)[C@H](CO)NC(=O)CNC(=O)[C@@H](NC(=O)[C@H](Cc1c[nH]cn1)NC(=O)[C@H](CC(=O)O)NC(=O)[C@H](C)N)C(C)C)C(=O)N[C@H](C(=O)N[C@H](C(=O)N[C@@H](Cc1ccc(O)cc1)C(=O)N[C@@H](CCC(N)=O)C(=O)N[C@@H](CO)C(=O)N1CCC[C@H]1C(=O)O)C(C)C)[C@@H](C)O [Ed 122 alpha 6-20] | 3
2 | CC[C@H](C)[C@H](NC(=O)[C@H](C)NC(=O)CNC(=O)[C@H](CC(C)C)NC(=O)[C@H](C)NC(=O)[C@@H](NC(=O)[C@H](CC(C)C)NC(=O)[C@@H](NC(=O)[C@@H](NC(=O)[C@@H](NC(=O)CNC(=O)[C@H](Cc1c[nH]cn1)NC(=O)[C@@H](N)CCCCN)C(C)C)[C@@H](C)O)C(C)C)[C@@H](C)O)C(=O)N[C@@H](CC(C)C)C(=O)N[C@@H](CCCCN)C(=O)N[C@@H](CCCCN)C(=O)O [Myo 63-78] | 9
